For 76 compounds, EC50 results are on record in patent US9884844B2 (priority 2012, dated 2018).

Chains of the proteins cited; added tags and fusions are not shown. Lines headed by an entry give the natural chain unless they say otherwise; changes in a name come on top.
UniProt P41146: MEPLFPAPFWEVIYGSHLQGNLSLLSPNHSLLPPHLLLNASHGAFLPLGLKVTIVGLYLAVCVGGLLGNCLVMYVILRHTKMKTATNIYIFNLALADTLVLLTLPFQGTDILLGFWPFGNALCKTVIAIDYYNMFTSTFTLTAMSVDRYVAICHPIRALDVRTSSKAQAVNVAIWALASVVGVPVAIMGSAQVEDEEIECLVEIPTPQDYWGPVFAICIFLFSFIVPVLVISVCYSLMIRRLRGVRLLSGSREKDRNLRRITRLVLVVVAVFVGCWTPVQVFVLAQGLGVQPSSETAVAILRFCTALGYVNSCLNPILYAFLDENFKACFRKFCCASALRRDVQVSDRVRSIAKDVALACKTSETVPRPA

The test has as its target human NOP (Homo sapiens, UniProt P41146). Kind of test: cAMP assay on cells expressing human NOP (NOP assay). The note with it: read-out: NOP EC50, HEK cells expressing human NOP.
On to `NC[C@@H](O)CC1(O)C(=O)N(C2CCN(C3Cc4cccc5cccc3c45)CC2)c2ccccc21` (single isomer, unassigned), for which the EC50 was under 100 nM.

As to `CNC(=O)CC1(C)C(=O)N(C2CCN(C3(C)Cc4cccc5cccc3c45)CC2)c2ccccc21` (stereo not shown), the concentration giving a half-maximal response (EC50) is under 100 nM.

Consider `CNC(=O)C[C@H]1C(=O)N(C2CCN(C3Cc4cccc5cccc3c45)CC2)c2ccccc21` (stereo partly shown), for which the EC50 was under 100 nM.

Turning to `CNC(=O)CC1C(=O)N(C2CCN(CCC(Oc3cc(C)ccc3Cl)C(C)C)CC2)c2ccccc21` (stereo not shown), the half-maximal effective concentration (EC50) was under 100 nM.

`CNC(=O)C[C@]1(C)C(=O)N(C2CCN([C@@H]3Cc4cccc5cccc3c45)CC2)c2ccccc21`: the concentration giving a half-maximal response (EC50) was under 100 nM.

Regarding `O=C1NCCC12C(=O)N(C1CCN(C3Cc4cccc5cccc3c45)CC1)c1ccccc12` (stereo not shown), the EC50 lay within 100 to 1000 nM.

On to `CNC(=O)C[C@]1(F)C(=O)N(C2CCN(C3c4cccc5cccc(c45)[C@@H]3O)CC2)c2ccccc21` (single isomer, unassigned), for which the EC50 is over 5000 nM.

For `CNC(=O)CCC1(O)C(=O)N(C2CCN(C3Cc4cccc5cccc3c45)CC2)c2ccccc21` (stereo not shown), the EC50 was under 100 nM.

Consider `O=C1N(C2CCN(C3Cc4cccc5cccc3c45)CC2)c2ccccc2C1(O)CCO` (stereo not shown), for which the EC50 was over 5000 nM.

In the case of `NC[C@H](O)CC1(O)C(=O)N(C2CCN(C3Cc4cccc5cccc3c45)CC2)c2ccccc21` (single isomer, unassigned), the EC50 is under 100 nM.

In the case of `CNC(=O)C[C@]1(C)C(=O)N(C2CCN([C@H]3c4cccc5cccc(c45)C3(F)F)CC2)c2ccccc21`, the EC50 was in the range of 100 to 1000 nM.

With `C[C@@]1(C[C@H](O)CN)C(=O)N(C2CCN([C@@H]3Cc4cccc5cccc3c45)CC2)c2ccccc21`, the EC50 was over 5000 nM.

Consider `CNC(=O)C[C@]1(O)C(=O)N(C2CCN([C@@H]3c4cccc5cccc(c45)[C@H]3O)CC2)c2ccccc21`, for which the concentration giving a half-maximal response (EC50) is under 100 nM.

On to `CNC(=O)CC1C(=O)N(C2CCN(C3c4cccc5cccc(c45)C3C)CC2)c2ccccc21` (stereo not shown), for which the EC50 was under 100 nM.

For the compound `Cc1cccc2cccc(CN3CCC(N4C(=O)C(C)(CC5CNC(=O)O5)c5ccccc54)CC3)c12` (stereo not shown), the EC50 is over 5000 nM.

As for `CC1(Cc2ncco2)C(=O)N(C2CCN([C@@H]3Cc4cccc5cccc3c45)CC2)c2ccccc21` (stereo partly shown), the EC50 was over 5000 nM.

As to `CC1(CC(O)CO)C(=O)N(C2CCN([C@@H]3Cc4cccc5cccc3c45)CC2)c2ccccc21` (stereo partly shown), the 50% effective concentration (EC50) was over 5000 nM.

`CNC(=O)C[C@@H]1C(=O)N(C2CCN(C3Cc4cccc5cccc3c45)CC2)c2ccccc21` (stereo partly shown): the EC50 is under 100 nM.

As to `CNC(=O)C[C@@]1(O)C(=O)N(C2CCN([C@H]3Cc4cccc5cccc3c45)CC2)c2ccccc21`, the EC50 was under 100 nM.

For the compound `CC(=O)OC1C(=O)N(C2CCN(C3Cc4cccc5cccc3c45)CC2)c2ccccc21` (stereo not shown), the EC50 was under 100 nM.

As for `CN1CC2(OC1=O)C(=O)N(C1CCN(C3Cc4cccc5cccc3c45)CC1)c1ccccc12` (stereo not shown), the concentration for a half-maximal effect (EC50) is under 100 nM.

For the compound `CNC(=O)CC1(F)C(=O)N(C2CCN(C3(C)Cc4cccc5cccc3c45)CC2)c2ccccc21` (stereo not shown), the EC50 is under 100 nM.

Turning to `CNC(=O)C[C@]1(O)C(=O)N(C2CCN([C@@H]3Cc4cccc5cccc3c45)CC2)c2ccccc21`, the half-maximal effective concentration (EC50) is under 100 nM.

For the compound `C[C@@H](O)CC1(O)C(=O)N(C2CCN(C3Cc4cccc5cccc3c45)CC2)c2ccccc21` (stereo partly shown), the EC50 is over 5000 nM.

In the case of `CNC(=O)CC1(O)C(=O)N(C2CCN(C3c4cccc5cccc(c45)[C@@H]3C)CC2)c2ccccc21` (stereo partly shown), the EC50 was under 100 nM.

Consider `CNC(=O)CC1(OC)C(=O)N(C2CCN([C@H]3c4cccc5cccc(c45)[C@@H]3O)CC2)c2ccccc21` (stereo partly shown), for which the 50% effective concentration (EC50) was under 100 nM.

Turning to `NC(=O)CC1C(=O)N(C2CCN(C3Cc4cccc5cccc3c45)CC2)c2ccccc21` (stereo not shown), the EC50 was under 100 nM.

For the compound `CNC(=O)CC1C(=O)N(C2CCN(CCC(Oc3cc(OC)ccc3Cl)C(C)C)CC2)c2ccccc21` (stereo not shown), the EC50 was under 100 nM.

As to `COC(=O)CC1C(=O)N(C2CCN(C3(C)CCCc4ccccc43)CC2)c2ccccc21` (stereo not shown), the EC50 was under 100 nM.

`CNC(=O)CC1(O)C(=O)N(C2CCN(C3Cc4cccc5ccnc3c45)CC2)c2ccccc21` (stereo not shown): the EC50 was over 5000 nM.

As for `CNC(=O)C(C)C1(O)C(=O)N(C2CCN(C3Cc4cccc5cccc3c45)CC2)c2ccccc21` (stereo not shown), the EC50 is under 100 nM.

For `Cn1ncnc1CC1(C)C(=O)N(C2CCN(C3c4cccc5cccc(c45)C3O)CC2)c2ccccc21` (stereo not shown), the EC50 was over 5000 nM.

For the compound `CC1(Cc2ncco2)C(=O)N(C2CCN(C3c4cccc5cccc(c45)C3O)CC2)c2ccccc21` (stereo not shown), the concentration giving a half-maximal response (EC50) is over 5000 nM.

For the compound `CN(C)C(=O)CC1(O)C(=O)N(C2CCN(C3Cc4cccc5cccc3c45)CC2)c2ccccc21` (stereo not shown), the EC50 was 100 to 1000 nM.

In the case of `COC(=O)NCC1(O)C(=O)N(C2CCN([C@@H]3c4cccc5cccc(c45)[C@H]3O)CC2)c2ccccc21` (stereo partly shown), the EC50 is over 5000 nM.

As to `CNC(=O)C[C@@]1(F)C(=O)N(C2CCN(C3c4cccc5cccc(c45)[C@@H]3O)CC2)c2ccccc21` (single isomer, unassigned), the EC50 was over 5000 nM.

In the case of `CN1CC2(CC1=O)C(=O)N(C1CCN([C@H]3c4cccc5cccc(c45)[C@@H]3O)CC1)c1ccccc12` (stereo partly shown), the EC50 is under 100 nM.

Turning to `CNC(=O)C[C@]1(O)C(=O)N(C2CCN([C@H]3c4cccc5cccc(c45)[C@@H]3O)CC2)c2ccccc21`, the EC50 was under 100 nM.

As to `CNC(=O)C[C@]1(F)C(=O)N(C2CCN(C3c4cccc5cccc(c45)[C@H]3O)CC2)c2ccccc21` (single isomer, unassigned), the EC50 is over 5000 nM.

Turning to `COCCC1(C)C(=O)N(C2CCN([C@H]3c4cccc5cccc(c45)C3O)CC2)c2ccccc21` (stereo partly shown), the EC50 is under 100 nM.

With `CN(C)C(=O)CC1(F)C(=O)N(C2CCN(C3Cc4cccc5cccc3c45)CC2)c2ccccc21` (stereo not shown), the half-maximal effective concentration (EC50) was under 100 nM.

Take `CNC(=O)CC1C(=O)N(C2CCN(C3(C)CCCc4ccccc43)CC2)c2ccccc21` (stereo not shown): the EC50 was under 100 nM.

For `O=C1N(C2CCN(C3Cc4cccc5cccc3c45)CC2)c2ccccc2C1(F)CC(O)CO` (stereo not shown), the concentration for a half-maximal effect (EC50) was over 5000 nM.

`CNC(=O)CC1(O)C(=O)N(C2CCN([C@H]3c4cccc5cccc(c45)[C@]3(C)O)CC2)c2ccccc21` (stereo partly shown): the EC50 lay within 100 to 1000 nM.

Regarding `Cn1cnc(CC2(C)C(=O)N(C3CCN(C4c5cccc6cccc(c56)C4O)CC3)c3ccccc32)n1` (stereo not shown), the EC50 was over 5000 nM.

Turning to `CNC(=O)CC1(O)C(=O)N(C2CCN(CCC(Oc3cc(OC)ccc3Cl)C(C)C)CC2)c2ccccc21` (stereo not shown), the EC50 is under 100 nM.

As for `C[C@]1(C[C@H](O)CN)C(=O)N(C2CCN([C@@H]3Cc4cccc5cccc3c45)CC2)c2ccccc21`, the EC50 was over 5000 nM.

As to `Cc1cccc2cccc(CN3CCC(N4C(=O)C(CC5CNC(=O)O5)c5ccccc54)CC3)c12` (stereo not shown), the EC50 was 1000 to 5000 nM.

Turning to `CNC(=O)CC1(C)C(=O)N(C2CCN([C@H]3c4cccc5cccc(c45)[C@]3(C)O)CC2)c2ccccc21` (stereo partly shown), the EC50 lay in the range of 100 to 1000 nM.

On to `CNC(=O)C[C@@]1(C)C(=O)N(C2CCN([C@H]3Cc4cccc5cccc3c45)CC2)c2ccccc21`, for which the EC50 was under 100 nM.

Take `NCC1(O)C(=O)N(C2CCN(C3Cc4cccc5cccc3c45)CC2)c2ccccc21` (stereo not shown): the EC50 was over 5000 nM.

On to `CNCC(O)CC1(C)C(=O)N(C2CCN(C3Cc4cccc5cccc3c45)CC2)c2ccccc21` (stereo not shown), for which the EC50 is over 5000 nM.

As to `NC(=O)CC1(O)C(=O)N(C2CCN(C3Cc4cccc5cccc3c45)CC2)c2ccccc21` (stereo not shown), the EC50 lay within 100 to 1000 nM.

As to `CNC(=O)CC1(C)C(=O)N(C2CCN([C@H]3c4cccc5cccc(c45)[C@@H]3OC)CC2)c2ccccc21` (stereo partly shown), the concentration giving a half-maximal response (EC50) was under 100 nM.

Turning to `CNC(=O)C[C@]1(C)C(=O)N(C2CCN([C@H]3c4ccccc4CC[C@@H]3O)CC2)c2ccccc21`, the EC50 was over 5000 nM.

Regarding `CNC(=O)C[C@@]1(C)C(=O)N(C2CCN([C@H]3c4ccccc4CC[C@@H]3O)CC2)c2ccccc21`, the concentration for a half-maximal effect (EC50) is over 5000 nM.

For `CNC(=O)CC1(OC)C(=O)N(C2CCN(CCC(Oc3cccc(OC)c3)C(C)C)CC2)c2ccccc21` (stereo not shown), the EC50 is over 5000 nM.

Take `O=C1NCC(CC2C(=O)N(C3CCN(C4Cc5cccc6cccc4c56)CC3)c3ccccc32)O1` (stereo not shown): the half-maximal effective concentration (EC50) is under 100 nM.

Consider `CN(C)C(=O)CC1(O)C(=O)N(C2CCN([C@H]3c4cccc5cccc(c45)[C@@H]3O)CC2)c2ccccc21` (stereo partly shown), for which the EC50 is under 100 nM.

For the compound `COCCC1(O)C(=O)N(C2CCN([C@H]3c4cccc5cccc(c45)C3O)CC2)c2ccccc21` (stereo partly shown), the EC50 is over 5000 nM.

As to `COC(=O)NCC1(O)C(=O)N(C2CCN(C3Cc4cccc5cccc3c45)CC2)c2ccccc21` (stereo not shown), the EC50 was over 5000 nM.

On to `COc1ccc(Cl)c(OC(CCN2CCC(N3C(=O)C(CC(N)=O)c4ccccc43)CC2)C(C)C)c1` (stereo not shown), for which the EC50 is under 100 nM.

Regarding `CNC(=O)CC1(C)C(=O)N(C2CCN([C@H]3c4cccc5cccc(c45)[C@@H]3O)CC2)c2ccccc21` (stereo partly shown), the EC50 was under 100 nM.

For the compound `NCC(O)CC1(O)C(=O)N(C2CCN(C3Cc4cccc5cccc3c45)CC2)c2ccccc21` (stereo not shown), the EC50 is under 100 nM.

In the case of `CNC(=O)OC1C(=O)N(C2CCN(C3Cc4cccc5cccc3c45)CC2)c2ccccc21` (stereo not shown), the EC50 is under 100 nM.

Take `CCOC(=O)CC1C(=O)N(C2CCN([C@@H]3c4cccc5cccc(c45)[C@H]3C)CC2)c2ccccc21` (stereo partly shown): the EC50 is 100 to 1000 nM.

Consider `CNC(=O)CC1C(=O)N(C2CCN(C3c4cccc5cccc(c45)C3O)CC2)c2ccccc21` (stereo not shown), for which the EC50 was under 100 nM.

Regarding `COc1ccc(Cl)c(OC(CCN2CCC(N3C(=O)C(CC(=O)N(C)C)c4ccccc43)CC2)C(C)C)c1` (stereo not shown), the concentration for a half-maximal effect (EC50) fell in the range of 100 to 1000 nM.

In the case of `CNC(=O)[C@H]1CC12C(=O)N(C1CCN(C3Cc4cccc5cccc3c45)CC1)c1ccccc12` (stereo partly shown), the EC50 is under 100 nM.

As to `CC1(CC(N)=O)C(=O)N(C2CCN(C3Cc4cccc5cccc3c45)CC2)c2ccccc21` (stereo not shown), the EC50 was under 100 nM.

In the case of `CNC(=O)CC1C(=O)N(C2CCN(C3Cc4cccc5cccc3c45)CC2)c2ccccc21` (stereo not shown), the EC50 is under 100 nM.

Consider `CNC(=O)CC1C(=O)N(C2CCN(C3Cc4cccc5ccc(OC)c3c45)CC2)c2ccccc21` (stereo not shown), for which the EC50 is over 5000 nM.

As for `CN(C)C(=O)CC1C(=O)N(C2CCN(C3Cc4cccc5cccc3c45)CC2)c2ccccc21` (stereo not shown), the EC50 was under 100 nM.

In the case of `CCOC(=O)CC1C(=O)N(C2CCN([C@H]3c4cccc5cccc(c45)[C@H]3C)CC2)c2ccccc21` (stereo partly shown), the EC50 lay in the range of 100 to 1000 nM.

Consider `CNC(=O)CC1(C)C(=O)N(C2CCN(C3(C)CCCc4ccccc43)CC2)c2ccccc21` (stereo not shown), for which the concentration giving a half-maximal response (EC50) was under 100 nM.

For `CNC(=O)C[C@]1(C)C(=O)N(C2CCN([C@@]3(C)CCCc4ccccc43)CC2)c2ccccc21`, the EC50 is under 100 nM.
